For the assay, the system named is S.aureus 6538™. Description: Time-kill kinetic assay. To be noted: after 2 minutes at 1.6 and 5.0 µg/mL RB; fluorescent light.

`O=C([O-])c1c(Cl)c(Cl)c(Cl)c(Cl)c1-c1c2cc(I)c(=O)c(I)c-2oc2c(I)c([O-])c(I)cc12.[Na+].[Na+]` [RB, 4,5,6,7-tetrachloro-2′,4′,5′,7′-tetraiodo-fluorescein]: the CFU counted result is reported as “No CFU were counted”.

The values are drawn from US20230233515A1, “PHOTODYNAMIC ANTI-GRAM-POSITIVE BACTERIAL ACTIVITY OF PHARMACEUTICAL-GRADE ROSE BENGAL” (priority 2021, published 2023).
